## Measured affinities in a library of Ab-14 light chain variants

Values reported by Li et al. 2023, doi:10.1038/s41467-023-39022-2 (FLAb copy).

Antigen: PDVDLGDISGINAS, a 14-residue peptide of the SARS-CoV-2 spike HR2 region.

Parent: Ab-14, a human scFv built as VH, the linker GGGGSGGGGSGGGGS, VL. Only the CDRs of the light chain vary.
VH: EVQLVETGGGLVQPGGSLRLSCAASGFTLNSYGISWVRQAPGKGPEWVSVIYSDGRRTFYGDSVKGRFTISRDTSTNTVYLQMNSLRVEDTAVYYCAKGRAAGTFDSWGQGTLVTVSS
VL: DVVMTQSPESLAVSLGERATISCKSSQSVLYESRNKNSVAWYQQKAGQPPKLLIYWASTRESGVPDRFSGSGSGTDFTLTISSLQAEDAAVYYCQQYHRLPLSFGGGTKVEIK

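The variants were designed computationally from a first round of random CDR variants and then made and measured. Several design methods are mixed in this list. Affinity was read by AlphaSeq, a pooled yeast mating assay with surface-displayed partners. After mating in shaken culture at 30 °C for 16 h, diploids were selected and their barcode pairs sequenced. Read counts were normalised to the haploid input and turned into Kd by a linear fit to BCL2-family pairs of known affinity, for each replicate. Mating was done six times.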

The whole VL of each variant is written out.
Variants here have more than six changes.
Numbers give log10(Kd / nM), so 0 is 1 nM and 3 is 1 µM. Smaller is tighter.
Averages over replicates are reported, and they cover detected replicates only.
An entry "ND" has no value in the source: the pair was not observed among the diploids in that replicate. This suggests poor binding but is not conclusive.
A sequence measured in both rounds can read differently, since the two assays cover different ranges.
Of ten entries with the parent sequence, four were seen in most replicates (averages 0.34 to 2.37), three in one and three in none, so single entries are noisy.
The authors' rule: three or more of the six replicates give a measured affinity, fewer mean a poor binder.
Background: pairings of all light chain designs with three empty control strains gave a value in 4% of cases (median 2.64, 5th percentile 1.59). Values in that range, when seen in few replicates, are hard to tell from nonspecific mating.

The variant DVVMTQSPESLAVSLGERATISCKISGMYQKESKNKNSVAWYQQKAGQPPKLLIYEMVNRMSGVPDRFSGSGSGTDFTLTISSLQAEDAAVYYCQQYDRLPLSFGGGTKVEIK showed -0.05, -0.43, -0.60, -0.30, -0.08, -0.59 (mean -0.34). The variant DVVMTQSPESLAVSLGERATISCKISQMVKVGAVHNNSIAWYQQKAGQPPKLLIYEEVTRAKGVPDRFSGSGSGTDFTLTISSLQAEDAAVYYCQQYHRLPLAFGGGTKVEIK gave ND, ND, 2.65, ND, ND, ND. The variant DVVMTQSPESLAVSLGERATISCSVHGQGTTGEKNWESVAWYQQKAGQPPKLLIYENSIRVEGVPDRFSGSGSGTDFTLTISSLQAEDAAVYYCQQYSHLPLLFGGGTKVEIK gave 1.50, 1.87, 2.48, 1.70, 1.38, 2.46 (mean 1.90). The variant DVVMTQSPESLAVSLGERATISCQIQGKLQHGGNQGDNVAWYQQKAGQPPKLLIYQGVETKNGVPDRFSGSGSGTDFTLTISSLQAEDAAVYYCQQYYTLPLTFGGGTKVEIK showed 1.64, 1.17, 1.21, 1.14, 1.87, 1.83 (mean 1.48). With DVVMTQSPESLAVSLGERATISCKISQLVNFLGKNKNSVAWYQQKAGQPPKLLIYQMSTRESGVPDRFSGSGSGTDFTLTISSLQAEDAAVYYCQQYDRLPLSFGGGTKVEIK the result was 2.70, 1.81, 2.25, 1.66, 1.93, 1.10 (mean 1.91). For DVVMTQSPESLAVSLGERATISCKIQQGELQESRNKNSVAWYQQKAGQPPKLLIYHASERESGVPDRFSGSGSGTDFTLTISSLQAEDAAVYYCQQYHRLPLSFGGGTKVEIK, the assay gave -0.42, -0.17, -0.37, -0.69, -0.36, -0.41 (mean -0.40). For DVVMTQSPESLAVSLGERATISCHMSMLTLGGLRNRNSVAWYQQKAGQPPKLLIYQMTTRENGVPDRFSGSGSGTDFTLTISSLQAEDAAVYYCQQYDRLPLIFGGGTKVEIK, the assay gave 0.64, 0.71, 0.70, 0.72, 0.79, 1.10 (mean 0.77). The variant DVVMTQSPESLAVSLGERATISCKLGSMVLLEHGNRNSIAWYQQKAGQPPKLLIYQQSTREEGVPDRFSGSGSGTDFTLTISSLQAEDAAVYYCQQYDRLPLSFGGGTKVEIK gave 1.10, -0.37, 0.03, 0.26, 0.19, 0.80 (mean 0.33).

For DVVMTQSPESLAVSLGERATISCMISQLTNMGTFAINSVAWYQQKAGQPPKLLIYQASVRNEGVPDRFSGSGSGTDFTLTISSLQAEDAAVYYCQQYDRLPLQFGGGTKVEIK, the assay gave 0.93, 0.36, 0.85, 1.01, 0.85, 1.54 (mean 0.92). The variant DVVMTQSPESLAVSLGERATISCKLPGWQGYESRNKASVAWYQQKAGQPPKLLIYQASTRESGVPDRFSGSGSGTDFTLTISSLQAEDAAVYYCQQYHRLPLSFGGGTKVEIK gave 0.21, 0.45, 0.23, 0.41, 0.28, 0.36 (mean 0.32). The variant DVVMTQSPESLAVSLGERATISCHSNGNLRMGERNKNHVAWYQQKAGQPPKLLIYSTDVRASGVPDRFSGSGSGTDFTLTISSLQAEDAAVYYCQQYSRLPLTFGGGTKVEIK gave 0.15, 0.14, 0.37, 0.69, 0.27, 0.59 (mean 0.37). The variant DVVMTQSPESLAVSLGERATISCMISQLMNMGQFAINSVAWYQQKAGQPPKLLIYQASERCNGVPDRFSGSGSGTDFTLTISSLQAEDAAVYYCQQYDRLPLMFGGGTKVEIK showed 1.26, 1.48, 2.41, 1.77, 1.55, 1.67 (mean 1.69). With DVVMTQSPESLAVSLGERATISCHVEHASLESNATMNSVAWYQQKAGQPPKLLIYNEACLADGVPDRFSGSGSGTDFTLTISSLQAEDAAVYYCQQYHRLPLAFGGGTKVEIK the result was 0.55, 0.66, 0.64, 0.36, 0.43, 0.51 (mean 0.53). The variant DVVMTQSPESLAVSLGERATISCHFAWPWQSGYESKQNVAWYQQKAGQPPKLLIYNASTVMTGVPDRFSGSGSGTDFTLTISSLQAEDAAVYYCQHYNRLPLSFGGGTKVEIK showed 0.66, 0.59, 0.75, 0.72, 0.61, 0.50 (mean 0.64). The variant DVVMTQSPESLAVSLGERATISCKFQQQDLYSSRNKNSVAWYQQKAGQPPKLLIYNASTRSQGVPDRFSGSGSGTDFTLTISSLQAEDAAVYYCQQYHRLPLSFGGGTKVEIK gave -0.15, -0.07, -0.27, -0.36, -0.32, -0.15 (mean -0.22).

The 2 strongest on average among those seen in every replicate, once more:

VL	replicates, log10 nM	mean log10 Kd (nM)
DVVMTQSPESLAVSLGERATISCKIQQGELQESRNKNSVAWYQQKAGQPPKLLIYHASERESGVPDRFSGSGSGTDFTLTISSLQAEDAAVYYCQQYHRLPLSFGGGTKVEIK	-0.42, -0.17, -0.37, -0.69, -0.36, -0.41	-0.40
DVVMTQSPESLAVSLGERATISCKISGMYQKESKNKNSVAWYQQKAGQPPKLLIYEMVNRMSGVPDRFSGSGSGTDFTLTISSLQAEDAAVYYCQQYDRLPLSFGGGTKVEIK	-0.05, -0.43, -0.60, -0.30, -0.08, -0.59	-0.34